Chains of the proteins cited; added tags and fusions are not shown.
UniProt P00533, whole entry, looked up: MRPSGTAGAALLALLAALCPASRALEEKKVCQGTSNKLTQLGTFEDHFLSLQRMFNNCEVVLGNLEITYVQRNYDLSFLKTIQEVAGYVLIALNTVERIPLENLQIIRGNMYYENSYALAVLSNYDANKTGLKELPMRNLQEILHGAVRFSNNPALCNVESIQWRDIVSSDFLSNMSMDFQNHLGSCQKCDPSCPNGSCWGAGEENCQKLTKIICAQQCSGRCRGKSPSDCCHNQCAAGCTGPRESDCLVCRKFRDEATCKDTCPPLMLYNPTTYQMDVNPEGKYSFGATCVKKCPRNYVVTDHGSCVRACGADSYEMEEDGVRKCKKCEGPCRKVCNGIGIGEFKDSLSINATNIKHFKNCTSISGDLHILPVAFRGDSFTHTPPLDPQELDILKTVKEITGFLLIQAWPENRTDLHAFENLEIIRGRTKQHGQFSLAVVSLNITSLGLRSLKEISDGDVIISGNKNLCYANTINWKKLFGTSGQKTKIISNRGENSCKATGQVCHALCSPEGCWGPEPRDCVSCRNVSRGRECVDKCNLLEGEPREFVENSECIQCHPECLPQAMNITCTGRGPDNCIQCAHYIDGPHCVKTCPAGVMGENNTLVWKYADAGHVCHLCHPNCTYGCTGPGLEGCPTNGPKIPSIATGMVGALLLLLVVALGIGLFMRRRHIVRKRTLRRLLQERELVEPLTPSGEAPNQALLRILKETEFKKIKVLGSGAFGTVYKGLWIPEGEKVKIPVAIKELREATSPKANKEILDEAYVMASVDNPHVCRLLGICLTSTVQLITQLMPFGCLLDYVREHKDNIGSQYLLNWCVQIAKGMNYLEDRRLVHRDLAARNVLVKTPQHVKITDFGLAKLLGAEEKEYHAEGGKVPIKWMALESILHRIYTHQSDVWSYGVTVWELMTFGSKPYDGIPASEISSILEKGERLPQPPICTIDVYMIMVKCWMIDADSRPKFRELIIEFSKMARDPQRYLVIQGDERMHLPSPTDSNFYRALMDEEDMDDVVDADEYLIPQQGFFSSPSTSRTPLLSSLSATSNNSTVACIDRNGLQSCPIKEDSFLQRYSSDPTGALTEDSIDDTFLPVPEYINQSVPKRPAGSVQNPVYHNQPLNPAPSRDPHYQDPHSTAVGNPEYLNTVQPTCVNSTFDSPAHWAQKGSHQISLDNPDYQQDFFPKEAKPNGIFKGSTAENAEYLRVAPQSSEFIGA

The target of this experiment is EGFR (human) (UniProt P00533). The following applies: bt474.
Usually IC50 stands for the concentration that gives 50% inhibition. On to `COCC1CCN1C/C=C/C(=O)Nc1cc2c(Nc3ccc(F)c(Cl)c3)ncnc2cc1OC[C@@H]1COCCO1` (stereo partly specified), for which the IC50 was determined as 4.8 nM.

Compound `CCOc1cc2ncnc(Nc3ccc(F)c(Cl)c3)c2cc1NC(=O)/C=C/CN1CC[C@H]1COC` had an IC50 of 7.8 nM.

`COC[C@@H]1CCN1C/C=C/C(=O)Nc1cc2c(Nc3ccc(F)c(Cl)c3)ncnc2cc1OC[C@H]1COCCO1`: the IC50 came out at 25 nM.

As to `COC[C@H]1CCN1C/C=C/C(=O)Nc1cc2c(Nc3ccc(F)c(Cl)c3)ncnc2cc1OC[C@H]1[C@@H]2COC[C@@H]21`, the IC50 is 2.9 nM.

`COC[C@H]1CCN1C/C=C/C(=O)Nc1cc2c(Nc3ccc(F)c(Cl)c3)ncnc2cc1OC[C@H]1COCCO1`: the concentration for half-maximal inhibition (IC50) came out at 2.9 nM.

As for `COC[C@@H]1CCN1C/C=C/C(=O)Nc1cc2c(Nc3ccc(F)c(Cl)c3)ncnc2cc1OC[C@H]1[C@@H]2COC[C@@H]21`, the IC50 was 22.2 nM.

The record behind these values is the Kinase Knowledgebase extract (Sharma et al. 2016).
